In patent publication US6350913B1, “3-alkoxybenzylamine derivatives and their use as medicines for treating schizophrenia” (Pierre Fabre Medicament, priority 1998, dated 2002) one finds ED50 data, which are given here for one compound.

This data set in a line: Cataleptogenic power (propensity to induce extrapyramidal side effects). The conditions noted are these: rat, in vivo, ip; rats, i.p. administration; read-out: Catalepsy ED50.

The ED50 is the dose at which the effect has come halfway, by size or by number of responders. As for `Cc1nc2n(c(=O)c1CCN1CCC(c3noc4cc(F)ccc34)CC1)CCCC2` [Risperidone, reference compound], the 50% effective dose (ED50) was 4.6 mg/kg.
